The target of the assay is Procathepsin L (Bos taurus, UniProt P25975). The experiment in a line: Inhibitory activity against bovine cathepsin L using Z-Phe-Arg-NHMec substrate.

Protein sequences, listed by entry. Tags and fused reporters are not part of them. Lines headed by an entry give the natural chain unless they say otherwise; changes in a name come on top.
UniProt P25975: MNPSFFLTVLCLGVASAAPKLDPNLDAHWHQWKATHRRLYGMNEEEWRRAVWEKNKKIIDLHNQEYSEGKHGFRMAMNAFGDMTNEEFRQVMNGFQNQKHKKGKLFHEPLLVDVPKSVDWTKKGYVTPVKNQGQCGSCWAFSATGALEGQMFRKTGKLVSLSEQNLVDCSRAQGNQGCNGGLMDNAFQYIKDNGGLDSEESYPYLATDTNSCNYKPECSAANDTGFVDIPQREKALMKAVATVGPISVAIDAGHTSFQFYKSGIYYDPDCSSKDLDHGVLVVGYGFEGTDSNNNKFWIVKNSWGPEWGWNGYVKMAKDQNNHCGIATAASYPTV

Among the data in ChEMBL document CHEMBL1141197, “Interaction of papain-like cysteine proteases with dipeptide-derived nitriles” (J Med Chem, 2005) are Ki values, retold here.

`CC(C)(C)OC(=O)N[C@@H](Cc1ccccc1)C(=O)NCC#N` displayed an inhibitory constant (Ki) of 520 nM. As for `CC(C)(C)OC(=O)N[C@H](Cc1ccccc1)C(=O)NCC#N`, the figure is more than 100000 nM.
